Data published in PubChem BioAssay (NCI).
Only a part is listed here, and it is no random draw.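 96-well plates, one dose, 48 hours. Percent growth reported; active if below 10.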 Activity calls are given as the source filed them.

Assays:
Test in all cases: NCI-60 one-dose screen, 48 h (100 = growth as untreated, 0 = no growth, -100 = all killed)
Settings in all cases: 10 µM
[1] = test system: NCI/ADR-RES ovarian
[2] = test system: T-47D breast
[3] = test system: BT-549 breast
[4] = test system: MDA-MB-435 melanoma
[5] = test system: SW-620 colon
[6] = test system: MCF7 breast
[7] = test system: HCT-116 colon
[8] = test system: HCC-2998 colon
[9] = test system: KM12 colon

Compound	growth [1]	growth [2]	growth [3]	growth [4]	growth [5]	growth [6]	growth [7]	growth [8]	growth [9]
O=[N+]([O-])c1cc([N+](=O)[O-])c(Nc2ccc(Cl)cc2)c([N+](=O)[O-])c1	active: 7.16%	active: 8.02%	inactive: 47.5%	inactive: 67.4%	inactive: 14%	active: 3.64%	inactive: 13%	inactive: 29.3%	active: 7.59%
COC(=O)C(O)(c1ccccc1)c1ccccc1	inactive: 106%	inactive: 92.1%	inactive: 95.6%	inactive: 102%	inactive: 124%	inactive: 94.8%	inactive: 91.2%	inactive: 107%	inactive: 109%
Nc1cc([As](Cl)Cl)cc(N)c1O	inactive: 67.1%	inactive: 65.5%	inactive: 42.5%	inactive: 44.5%	inactive: 50.8%	inactive: 17.8%	inactive: 26.2%	inactive: 88.4%	inactive: 95.5%
CCN(C)CC.O=[N+]([O-])c1cc([N+](=O)[O-])c(O)c([N+](=O)[O-])c1	inactive: 101%	inactive: 96.6%	inactive: 90.9%	inactive: 100%	inactive: 98.4%	inactive: 92.3%	inactive: 87.9%	inactive: 103%	inactive: 101%
CN(CCCl)CCCCCCCl	inactive: 98.6%	inactive: 84.5%	inactive: 87.4%	inactive: 102%	inactive: 87.5%	inactive: 89.9%	inactive: 95.2%	inactive: 101%	inactive: 105%
O=C(OCCN1CCCCCCCC1)C(O)(c1ccccc1)c1ccccc1	inactive: 106%	inactive: 94.6%	inactive: 104%	inactive: 114%	inactive: 109%	inactive: 103%	inactive: 100%	inactive: 109%	inactive: 105%
CC(C)N1CCN(CCOC(=O)C(O)(c2ccccc2)c2ccccc2)CC1	inactive: 104%	inactive: 86.3%	inactive: 93.6%	–	inactive: 101%	inactive: 90.9%	inactive: 89.6%	inactive: 95.5%	inactive: 101%
CN(CCO)CCCl.O=[N+]([O-])c1cc([N+](=O)[O-])c(O)c([N+](=O)[O-])c1	inactive: 106%	inactive: 95.6%	inactive: 97.4%	inactive: 100%	inactive: 88.1%	inactive: 90.8%	inactive: 97.9%	inactive: 98.9%	inactive: 103%
n1nc(-c2nn[nH]n2)n[nH]1	inactive: 110%	inactive: 91%	–	inactive: 106%	inactive: 107%	inactive: 110%	inactive: 104%	inactive: 102%	inactive: 109%
OCCSCCO	inactive: 108%	inactive: 103%	inactive: 104%	inactive: 95.9%	inactive: 110%	–	inactive: 100%	inactive: 104%	inactive: 105%
O=[N+]([O-])c1cc([N+](=O)[O-])c(C(F)(F)F)c([N+](=O)[O-])c1O	inactive: 98.7%	–	inactive: 94.2%	inactive: 101%	inactive: 99.9%	inactive: 94.8%	inactive: 99.9%	inactive: 105%	inactive: 97.3%
CCN(CC)CCOC(=O)C(O)(c1ccccc1)c1cc(C)c(C)c(C)c1C (centres undefined)	inactive: 101%	inactive: 84.9%	inactive: 89.9%	inactive: 106%	inactive: 102%	inactive: 88.5%	inactive: 91.9%	inactive: 92.1%	inactive: 104%
CCN(CC)CCS	inactive: 106%	inactive: 104%	inactive: 99.5%	inactive: 104%	inactive: 103%	inactive: 105%	inactive: 103%	inactive: 109%	inactive: 97.2%
N=C(N)N(N)[N+](=O)[O-]	inactive: 106%	inactive: 105%	–	inactive: 111%	inactive: 104%	inactive: 106%	inactive: 106%	inactive: 106%	inactive: 101%
CCCOP(=S)(Cl)OCCC	inactive: 105%	inactive: 104%	inactive: 112%	inactive: 99%	inactive: 96.7%	inactive: 97.9%	inactive: 108%	inactive: 104%	inactive: 107%
NN/C(N)=N/[N+](=O)[O-]	inactive: 96.7%	inactive: 93.9%	inactive: 90.9%	inactive: 106%	inactive: 108%	–	inactive: 98.9%	inactive: 94.7%	inactive: 111%
Cc1c([N+](=O)[O-])c(C)c([N+](=O)[O-])c(C)c1[N+](=O)[O-]	inactive: 104%	inactive: 109%	–	inactive: 103%	inactive: 105%	inactive: 104%	inactive: 108%	inactive: 103%	inactive: 116%
Cc1ccc(Nc2c([N+](=O)[O-])cc([N+](=O)[O-])cc2[N+](=O)[O-])cc1	inactive: 90.6%	–	inactive: 97.2%	inactive: 98.4%	inactive: 92.9%	inactive: 71.1%	inactive: 84.5%	inactive: 106%	inactive: 91.5%
